# Results published in patent publication US5789404A, “3-substituted 1-arylindole compounds” (H. Lundbeck A/S, priority 1993, dated 1998).
# The chains behind the UniProt entries cited, without tags or fusion partners.
# UniProt P61169, whole entry: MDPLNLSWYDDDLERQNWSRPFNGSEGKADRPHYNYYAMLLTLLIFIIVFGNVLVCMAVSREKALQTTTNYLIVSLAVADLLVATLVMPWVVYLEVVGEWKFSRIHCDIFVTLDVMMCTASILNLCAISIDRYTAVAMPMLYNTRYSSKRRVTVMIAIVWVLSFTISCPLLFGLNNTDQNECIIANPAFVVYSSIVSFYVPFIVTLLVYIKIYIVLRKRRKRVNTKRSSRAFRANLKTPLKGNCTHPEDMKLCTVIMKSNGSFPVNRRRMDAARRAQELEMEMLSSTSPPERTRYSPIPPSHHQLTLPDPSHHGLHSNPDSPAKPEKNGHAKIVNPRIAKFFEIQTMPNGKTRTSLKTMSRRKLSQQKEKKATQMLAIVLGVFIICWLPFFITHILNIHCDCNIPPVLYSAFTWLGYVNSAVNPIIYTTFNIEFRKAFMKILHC
# Counter-ions that a name gives are not always drawn.
# Target: dopamine D2 receptors (Rattus norvegicus, UniProt P61169)
# Conditions: ^3 H-spiroperidol 0.5 nM; rat corpus striatum membranes; read-out: Dopamin D2 binding ^3 H spiroperidol, IC50
# Experimental: Inhibition of ^3 H-Spiroperidol Binding to Dopamine D2 Receptors in Rat Corpus Striatum in vitro
# By this method the inhibition by drugs of the binding of ^3 H-spiroperidol (0.5 nM) to dopamine D2 receptors in membranes from rat corpus striatum is determined in vitro. The method is described in Hyttel & Larsen, J. Neurochem, 44, 1615-1622, 1985).
smiles,measurement,value
"CCN(CCOc1cn(-c2ccc(F)cc2)c2ccc(Cl)cc12)CCN1CCNC1=O [Compound 4c, 1-[2-[[2-[5-Chloro-1-(4-fluorophenyl)-3-1H-indolyloxy]ethyl]ethylamino]ethyl]-2-imidazolidinone maleate]",IC50,18 nM
